From article PMC8624105 (Viruses, 2021)

Legend:
Assay in all cases: holdup assay
Format in all cases: binding, human
SHANK3 = test system: SHANK3
SHANK2 = test system: SHANK2
NHERF2 PDZ1 = conditions: PDZ about 4 μM; two independent experiments
DLG2 PDZ2 = conditions: PDZ about 4 μM; two independent experiments
FRMPD4 PDZ1 = conditions: PDZ about 4 μM; two independent experiments
MAGI1 PDZ4 = conditions: PDZ about 4 μM; two independent experiments
LIN7C PDZ1 = conditions: PDZ about 4 μM; sd not given
PDLIM1 PDZ1 = conditions: PDZ about 4 μM; two independent experiments
CNKSR2 PDZ1 = conditions: PDZ about 4 μM; two independent experiments
CASK PDZ1 = conditions: PDZ about 4 μM; two independent experiments
MAGI3 PDZ1 = conditions: PDZ about 4 μM; two independent experiments
TJP1 PDZ2 = conditions: PDZ about 4 μM; two independent experiments
DVL3 PDZ1 = conditions: PDZ about 4 μM; two independent experiments
CNKSR3 PDZ1 = conditions: PDZ about 4 μM; sd not given
MPDZ PDZ7 = conditions: PDZ about 4 μM; two independent experiments
SNTG1 PDZ1 = conditions: PDZ about 4 μM; two independent experiments
GRIP1 PDZ1 = conditions: PDZ about 4 μM; two independent experiments
SDCBP2 PDZ2 = conditions: PDZ about 4 μM; two independent experiments
MLLT4 PDZ1 = conditions: PDZ about 4 μM; two independent experiments
DLG4 PDZ2 = conditions: PDZ about 4 μM; two independent experiments
SHROOM4 PDZ1 = conditions: PDZ about 4 μM; two independent experiments
RIMS1 PDZ1 = conditions: PDZ about 4 μM; two independent experiments
PDZRN4 PDZ2 = conditions: PDZ about 4 μM; two independent experiments
PDZD9 PDZ1 = conditions: PDZ about 4 μM; two independent experiments
DLG5 PDZ2 = conditions: PDZ about 4 μM; two independent experiments
STXB4 PDZ1 = conditions: PDZ about 4 μM; two independent experiments
MAGI2 PDZ2 = conditions: PDZ about 4 μM; two independent experiments
DLG4 PDZ3 = conditions: PDZ about 4 μM; two independent experiments
APBA2 PDZ1 = conditions: PDZ about 4 μM; sd not given
MAGI1 PDZ2 = conditions: PDZ about 4 μM; two independent experiments
MAGI2 PDZ5 = conditions: PDZ about 4 μM; two independent experiments
GRIP2 PDZ6 = conditions: PDZ about 4 μM; two independent experiments
SNTG2 PDZ1 = conditions: PDZ about 4 μM; two independent experiments
SYNP2 PDZ1 = conditions: PDZ about 4 μM; two independent experiments
TJP2 PDZ1 = conditions: PDZ about 4 μM; two independent experiments
MPDZ PDZ1 = conditions: PDZ about 4 μM; two independent experiments
RHPN2 PDZ1 = conditions: PDZ about 4 μM; two independent experiments
TJP3 PDZ3 = conditions: PDZ about 4 μM; two independent experiments
PTPN13 PDZ2 = conditions: PDZ about 4 μM; two independent experiments
GOPC PDZ1 = conditions: PDZ about 4 μM; two independent experiments
GRIP1 PDZ4 = conditions: PDZ about 4 μM; two independent experiments
PARD6B PDZ1 = conditions: PDZ about 4 μM; two independent experiments
APBA3 PDZ1 = conditions: PDZ about 4 μM; two independent experiments
LIMK2 PDZ1 = conditions: PDZ about 4 μM; two independent experiments
MPP2 PDZ1 = conditions: PDZ about 4 μM; two independent experiments
USH1C PDZ1 = conditions: PDZ about 4 μM; sd not given
DFNB31 PDZ3 = conditions: PDZ about 4 μM; two independent experiments
USH1C PDZ2 = conditions: PDZ about 4 μM; two independent experiments
CNKSR1 PDZ1 = conditions: PDZ about 4 μM; two independent experiments
InaDl PDZ1 = conditions: PDZ about 4 μM; two independent experiments
DVL2 PDZ1 = conditions: PDZ about 4 μM; two independent experiments
[1] = PDZ about 4 μM, two independent experiments

Biotin-(PEG3)-GFQNTDDVQTSF [ACE2 PBM peptide]
BI (binding intensity) (SHANK3; [1]): 0.75 | Kd estimated (SHANK3; converted from BI, PDZ typically 4 μM, immobilized peptide 21 μM): micromolar range | Kd (SHANK3; converted from BI, PDZ typically 4 μM, immobilized peptide 21 μM, read-out: Kd estimated): 6.08 µM | BI (binding intensity) (SHANK2; [1]): 0.62 | Kd (SHANK2; converted from BI, PDZ typically 4 μM, immobilized peptide 21 μM, listed as PBM peptide from ACE2 protein, read-out: Kd estimated): 11.5 µM | BI (binding intensity) (NHERF2 PDZ1): 0.15 | BI (binding intensity) (DLG2 PDZ2): 0.13 | BI (binding intensity) (FRMPD4 PDZ1): 0.11 | BI (binding intensity) (MAGI1 PDZ4): 0.06 | BI (binding intensity) (LIN7C PDZ1): 0.05 | BI (binding intensity) (PDLIM1 PDZ1): 0.04 | BI (binding intensity) (CNKSR2 PDZ1): 0.03 | BI (binding intensity) (CASK PDZ1): 0.03 | BI (binding intensity) (MAGI3 PDZ1): 0.02 | BI (binding intensity) (TJP1 PDZ2): 0.01 | BI (binding intensity) (DVL3 PDZ1): 0.01 | BI (binding intensity) (CNKSR3 PDZ1): 0.00 | BI (binding intensity) (MPDZ PDZ7): 0.00 | BI (binding intensity) (SNTG1 PDZ1): -0.01 | BI (binding intensity) (GRIP1 PDZ1): -0.01 | BI (binding intensity) (SDCBP2 PDZ2): -0.01 | BI (binding intensity) (MLLT4 PDZ1): -0.01 | BI (binding intensity) (DLG4 PDZ2): -0.02 | BI (binding intensity) (SHROOM4 PDZ1): -0.02 | BI (binding intensity) (RIMS1 PDZ1): -0.02 | BI (binding intensity) (PDZRN4 PDZ2): -0.02 | BI (binding intensity) (PDZD9 PDZ1): -0.02 | BI (binding intensity) (DLG5 PDZ2): -0.03 | BI (binding intensity) (STXB4 PDZ1): -0.03 | BI (binding intensity) (MAGI2 PDZ2): -0.03 | BI (binding intensity) (DLG4 PDZ3): -0.03 | BI (binding intensity) (APBA2 PDZ1): -0.03 | BI (binding intensity) (MAGI1 PDZ2): -0.04 | BI (binding intensity) (MAGI2 PDZ5): -0.04 | BI (binding intensity) (GRIP2 PDZ6): -0.04 | BI (binding intensity) (SNTG2 PDZ1): -0.05 | BI (binding intensity) (SYNP2 PDZ1): -0.05 | BI (binding intensity) (TJP2 PDZ1): -0.07 | BI (binding intensity) (MPDZ PDZ1): -0.07 | BI (binding intensity) (RHPN2 PDZ1): -0.08 | BI (binding intensity) (TJP3 PDZ3): -0.08 | BI (binding intensity) (PTPN13 PDZ2): -0.09 | BI (binding intensity) (GOPC PDZ1): -0.09 | BI (binding intensity) (GRIP1 PDZ4): -0.10 | BI (binding intensity) (PARD6B PDZ1): -0.10 | BI (binding intensity) (APBA3 PDZ1): -0.11 | BI (binding intensity) (LIMK2 PDZ1): -0.11 | BI (binding intensity) (MPP2 PDZ1): -0.12 | BI (binding intensity) (USH1C PDZ1): -0.13 | BI (binding intensity) (DFNB31 PDZ3): -0.24 | BI (binding intensity) (USH1C PDZ2): -0.25 | BI (binding intensity) (CNKSR1 PDZ1): -0.31 | BI (binding intensity) (InaDl PDZ1): -0.34 | BI (binding intensity) (DVL2 PDZ1): -0.38
